We go through 2 compounds from patent publication US5013539A, “Method and composition for antagonism of sodium nitroprusside toxic effects” (dated 1991).

For data set [1] the following is noted: prior art; cited from earlier work.
The test system of data set [2] is Male ICR mice. Nature of the data set: Toxicity of alpha-ketoglutaric acid alone in animals.
In another data set the test system is rats. Briefly: Sodium nitroprusside infusion in rats (hypotension, mortality). Conditions: alpha-ketoglutaric acid added to sodium nitroprusside.
The subject of data set [3] is Male ICR mice. Nature of the data set: Effects of pretreatment regimen on the LD50 value of potassium cyanide in mice. Conditions: group B alpha-ketoglutaric acid vs group A control.

Regarding Cobalt edetate, the “toxic effects of its own” value in data set [1] is “atrial fibrillation, gastrointestinal hemmorrhage and anaphylactoid reactions”.

On to `O=C(O)CCC(=O)C(=O)O`, for which the “lethality of alpha-ketoglutaric acid alone” value in the data set on Male ICR mice [2] (doses of 1, 2, and 4 grams per kilogram of body weight) is “No lethality was observed”. Further, the “symptoms after alpha-ketoglutaric acid” value in the data set with Male ICR mice [2] (doses up to 2 g/kg) is on record as “no symptoms more remarkable than lethargy”. In the data set with rats, the “effect on hypotension induced by sodium nitroprusside” value was “does not abate the hypotension”. For the same compound, in the data set with Male ICR mice [3], the “Potency Ratio (LD50 of KCN, alpha-ketoglutaric acid pretreated over saline control)” value was 5.0 (4.5-5.5).
